In PubChem BioAssay AID1424 (The Scripps Research Institute Molecular Screening Center, 2008):
Only a part is listed here, and it is no random draw. The source made the active and inactive calls.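 Rule for the calls: active = activation above its plate's cutoff, the mean activation of test wells on that plate plus 3 SD (cut at about 19% in these data); inactive = the rest.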

Tested on: transient receptor potential cation channel N1 (TRPN1/NompC), Danio rerio
Assay: zebrafish TRPN1 channel agonists, primary screen, cell-based, HEK293, calcium fluorescence (AID 1424);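 note: 0% = DMSO alone and 100% = 87 µM carbachol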
Settings: HEK293 zebrafish TRPN1-YFP, Fluo-8 calcium fluorescence; at 3 µM; hits give high values; 100% = response to 87 µM carbachol
Summary of the method: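 System: zebrafish TRPN1-YFP in HEK293 cells / Dosing: 3 µM single point / Timing: dye loading 1 h at 37 °C, then 30 min room temperature / Signal: Fluo-8 calcium fluorescence, excitation 470-495 nm, emission 515-575 nm / Read-out basis: percent activation from peak over basal fluorescence ratio, control-normalized / Control set: high carbachol 87 µM, low DMSO alone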

SMILES | activation
CC(C)(C)c1ccc(OP(C)(=O)O)cc1 | inactive: 1.52%
COc1ccccc1OP(C)(=O)Nc1ccccc1Br (configuration not stated) | inactive: -2.16%
CCc1ccc(OP(C)(=O)Nc2cccnc2)cc1 (configuration not stated) | inactive: -1.47%
CP(=O)(Oc1ccccc1)N1CCOC1=O (configuration not stated) | inactive: 0.63%
O=C(OCCCN1CCCC1)C(O)(c1ccccc1)C1CCCCC1 (configuration not stated) | inactive: 1.41%
COc1ccccc1OP(C)(=O)Nc1c(C)n(C)n(-c2ccccc2)c1=O (configuration not stated) | inactive: 0.04%
COc1ccc(OP(C)(=O)Nc2ccc(Br)cc2)cc1 (configuration not stated) | inactive: 0.35%
CCN(CC)CC(O)COC(=O)C(O)(c1ccccc1)C1CCCCC1 (configuration not stated) | inactive: -0.12%
CCc1ccc(OP(C)(=O)O)cc1 | inactive: 1.4%
COc1ccccc1OP(C)(=O)Nc1ccc(C)cc1C (configuration not stated) | inactive: 0.07%
CP(=O)(Nc1ccccn1)Oc1ccccc1 (configuration not stated) | inactive: 0.43%
O=[N+]([O-])c1cc([N+](=O)[O-])c(Nc2ccccn2)c([N+](=O)[O-])c1 | inactive: 3.1%
Cc1c(NP(C)(=O)Oc2ccc(C(C)C)cc2)c(=O)n(-c2ccccc2)n1C (configuration not stated) | inactive: 0.18%
CN(C)CCOC(=O)C(O)(c1ccccc1)C1CCCC1 (configuration not stated) | inactive: 0.33%
COc1ccc(OP(C)(=O)Nc2ccccn2)cc1 (configuration not stated) | inactive: -0.59%
COc1ccccc1OP(C)(=O)Nc1ccc(Br)cc1 (configuration not stated) | inactive: 1.28%
CP(=O)(OCCOc1ccccc1)OCCOc1ccccc1 | inactive: -0.48%
CP(=O)(Nc1ccc(Cl)cc1Cl)Oc1ccccc1 (configuration not stated) | inactive: -1.56%
Cc1nc2ccc3ccccc3c2o1.O=[N+]([O-])c1cc([N+](=O)[O-])c(O)c([N+](=O)[O-])c1 | inactive: -0.66%
COc1ccc(OP(C)(=O)Nc2ccccc2Br)cc1 (configuration not stated) | inactive: -0.07%
COc1ccccc1OP(C)(=O)Nc1ccc(C)c(C)c1 (configuration not stated) | inactive: 0.26%
Cc1cc(C)cc(OP(C)(=O)Nc2cccc(C(F)(F)F)c2)c1 (configuration not stated) | inactive: -1.87%
